# Columns and labels:
# [1] = molecular target: human glucagon-like peptide 1 receptor (human) (UniProt P43220); test: cell-based or functional assay
# [2] = molecular target: human glucagon receptor (human) (UniProt P47871); test: cell-based or functional assay
substance,measurement,setting,value
Exendin-4 (from UniProt P26349) (peptide),"GLP-1R EC50 (nM), cAMP formation in HEK293 cells expressing human GLP-1-R",[1],0.02 nM
same,"GLUR EC50 (nM), cAMP formation in HEK293 cells expressing human Glucagon-R",[2],> 1000 nM

# Source: patent publication US20150080295A1 (ZEALAND PHARMA A S, published 2015)
